Source: PubChem BioAssay (NCI)
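Grown in 96-well plates, cells were treated for 48 hours with each compound at five concentrations. Insufficient inhibition: endpoint recorded as highest concentration tested. GI50 is the concentration that inhibits growth by half. At the TGI there is no net growth.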

How the values were obtained:
Test in all cases: NCI anticancer screen, dose series, 48 h
786-0 renal = tested on: 786-0 renal
A498 renal = tested on: A498 renal
A549 NSCLC = tested on: A549 NSCLC
ACHN renal = tested on: ACHN renal
CAKI-1 renal = tested on: CAKI-1 renal
CCRF-CEM leukemia = tested on: CCRF-CEM leukemia
COLO 205 colon = tested on: COLO 205 colon
DU-145 prostate = tested on: DU-145 prostate
EKVX NSCLC = tested on: EKVX NSCLC
HCC-2998 colon = tested on: HCC-2998 colon
HCT-116 colon = tested on: HCT-116 colon
HCT-15 colon = tested on: HCT-15 colon
HL-60(TB) leukemia = tested on: HL-60(TB) leukemia
HOP-62 NSCLC = tested on: HOP-62 NSCLC
HOP-92 NSCLC = tested on: HOP-92 NSCLC
HS 578T breast = tested on: HS 578T breast
HT29 colon = tested on: HT29 colon
K-562 leukemia = tested on: K-562 leukemia
KM12 colon = tested on: KM12 colon
LOX IMVI melanoma = tested on: LOX IMVI melanoma
M14 melanoma = tested on: M14 melanoma
MCF7 breast = tested on: MCF7 breast
MDA-MB-435 = tested on: MDA-MB-435
MDA-N = tested on: MDA-N
MOLT-4 leukemia = tested on: MOLT-4 leukemia
NCI-H226 lung = tested on: NCI-H226 lung
NCI-H23 lung = tested on: NCI-H23 lung
NCI-H322M lung = tested on: NCI-H322M lung
NCI-H460 lung = tested on: NCI-H460 lung
NCI-H522 lung = tested on: NCI-H522 lung
NCI/ADR-RES ovarian = tested on: NCI/ADR-RES ovarian
OVCAR-3 ovarian = tested on: OVCAR-3 ovarian
OVCAR-4 ovarian = tested on: OVCAR-4 ovarian
OVCAR-5 ovarian = tested on: OVCAR-5 ovarian
OVCAR-8 ovarian = tested on: OVCAR-8 ovarian
RPMI-8226 leukemia = tested on: RPMI-8226 leukemia
RXF 393 renal = tested on: RXF 393 renal
SF-268 CNS = tested on: SF-268 CNS
SF-295 CNS = tested on: SF-295 CNS
SF-539 CNS = tested on: SF-539 CNS
SK-MEL-5 melanoma = tested on: SK-MEL-5 melanoma
SK-OV-3 ovarian = tested on: SK-OV-3 ovarian
SN12C renal = tested on: SN12C renal
SNB-75 CNS = tested on: SNB-75 CNS
SR leukemia = tested on: SR leukemia
SW-620 colon = tested on: SW-620 colon
T-47D breast = tested on: T-47D breast
TK-10 renal = tested on: TK-10 renal
UACC-257 melanoma = tested on: UACC-257 melanoma
UACC-62 melanoma = tested on: UACC-62 melanoma
UO-31 renal = tested on: UO-31 renal

In the case of `CCP1(=O)OC(C)(C)CN1C(C)(C)C` (configuration not stated), the GI50 (786-0 renal) was > 100 µM, the TGI (786-0 renal) was > 100 µM and the GI50 (A498 renal) was > 100 µM. For the same compound, the TGI (A498 renal) was > 100 µM, the GI50 (A549 NSCLC) was > 100 µM and the TGI (A549 NSCLC) was > 100 µM. The GI50 (ACHN renal) was > 100 µM, the TGI (ACHN renal) was > 100 µM and the GI50 (CAKI-1 renal) was > 100 µM. For the same compound, the TGI (CAKI-1 renal) was > 100 µM, the GI50 (CCRF-CEM leukemia) was > 100 µM and the TGI (CCRF-CEM leukemia) was > 100 µM. The GI50 (COLO 205 colon) was > 100 µM, the TGI (COLO 205 colon) was > 100 µM and the GI50 (DU-145 prostate) was > 100 µM. For the same compound, the TGI (DU-145 prostate) was > 100 µM, the GI50 (EKVX NSCLC) was > 100 µM and the TGI (EKVX NSCLC) was > 100 µM. The GI50 (HCC-2998 colon) was > 100 µM, the TGI (HCC-2998 colon) was > 100 µM and the GI50 (HCT-116 colon) was > 100 µM. For the same compound, the TGI (HCT-116 colon) was > 100 µM, the GI50 (HCT-15 colon) was > 100 µM and the TGI (HCT-15 colon) was > 100 µM. The GI50 (HL-60(TB) leukemia) was > 100 µM, the TGI (HL-60(TB) leukemia) was > 100 µM and the GI50 (HOP-62 NSCLC) was > 100 µM. The TGI (HOP-62 NSCLC) was > 100 µM, the GI50 (HOP-92 NSCLC) was > 100 µM and the TGI (HOP-92 NSCLC) was > 100 µM. For the same compound, the GI50 (HS 578T breast) was > 100 µM, the TGI (HS 578T breast) was > 100 µM and the GI50 (HT29 colon) was > 100 µM. For the same compound, the TGI (HT29 colon) was > 100 µM, the GI50 (K-562 leukemia) was > 100 µM and the TGI (K-562 leukemia) was > 100 µM. For the same compound, the GI50 (KM12 colon) was > 100 µM, the TGI (KM12 colon) was > 100 µM and the GI50 (LOX IMVI melanoma) was > 100 µM. For the same compound, the TGI (LOX IMVI melanoma) was > 100 µM, the GI50 (M14 melanoma) was > 100 µM and the TGI (M14 melanoma) was > 100 µM. The GI50 (MCF7 breast) was > 100 µM, the TGI (MCF7 breast) was > 100 µM and the GI50 (MDA-MB-435) was > 100 µM. For the same compound, the TGI (MDA-MB-435) was > 100 µM, the GI50 (MDA-N) was > 100 µM and the TGI (MDA-N) was > 100 µM. The GI50 (MOLT-4 leukemia) was > 100 µM, the TGI (MOLT-4 leukemia) was > 100 µM and the GI50 (NCI-H226 lung) was > 100 µM. For the same compound, the TGI (NCI-H226 lung) was > 100 µM, the GI50 (NCI-H23 lung) was > 100 µM and the TGI (NCI-H23 lung) was > 100 µM. The GI50 (NCI-H322M lung) was > 100 µM, the TGI (NCI-H322M lung) was > 100 µM and the GI50 (NCI-H460 lung) was > 100 µM. The TGI (NCI-H460 lung) was > 100 µM, the GI50 (NCI-H522 lung) was > 100 µM and the TGI (NCI-H522 lung) was > 100 µM. For the same compound, the GI50 (NCI/ADR-RES ovarian) was > 100 µM, the TGI (NCI/ADR-RES ovarian) was > 100 µM and the GI50 (OVCAR-3 ovarian) was > 100 µM. For the same compound, the TGI (OVCAR-3 ovarian) was > 100 µM, the GI50 (OVCAR-4 ovarian) was > 100 µM and the TGI (OVCAR-4 ovarian) was > 100 µM. The GI50 (OVCAR-5 ovarian) was > 100 µM, the TGI (OVCAR-5 ovarian) was > 100 µM and the GI50 (OVCAR-8 ovarian) was > 100 µM. The TGI (OVCAR-8 ovarian) was > 100 µM, the GI50 (RPMI-8226 leukemia) was > 100 µM and the TGI (RPMI-8226 leukemia) was > 100 µM. For the same compound, the GI50 (RXF 393 renal) was > 100 µM, the TGI (RXF 393 renal) was > 100 µM and the GI50 (SF-268 CNS) was > 100 µM. The TGI (SF-268 CNS) was > 100 µM, the GI50 (SF-295 CNS) was > 100 µM and the TGI (SF-295 CNS) was > 100 µM. The GI50 (SF-539 CNS) was > 100 µM, the TGI (SF-539 CNS) was > 100 µM and the GI50 (SK-MEL-5 melanoma) was > 100 µM. The TGI (SK-MEL-5 melanoma) was > 100 µM, the GI50 (SK-OV-3 ovarian) was > 100 µM and the TGI (SK-OV-3 ovarian) was > 100 µM. For the same compound, the GI50 (SN12C renal) was > 100 µM, the TGI (SN12C renal) was > 100 µM and the GI50 (SNB-75 CNS) was > 100 µM. For the same compound, the TGI (SNB-75 CNS) was > 100 µM, the GI50 (SR leukemia) was > 100 µM and the TGI (SR leukemia) was > 100 µM. The GI50 (SW-620 colon) was > 100 µM, the TGI (SW-620 colon) was > 100 µM and the GI50 (T-47D breast) was > 100 µM. For the same compound, the TGI (T-47D breast) was > 100 µM, the GI50 (TK-10 renal) was > 100 µM and the TGI (TK-10 renal) was > 100 µM. The GI50 (UACC-257 melanoma) was > 100 µM, the TGI (UACC-257 melanoma) was > 100 µM and the GI50 (UACC-62 melanoma) was > 100 µM. For the same compound, the TGI (UACC-62 melanoma) was > 100 µM, the GI50 (UO-31 renal) was > 100 µM and the TGI (UO-31 renal) was > 100 µM.
